Test results as given in ChEMBL document CHEMBL4402608 (J Med Chem, 2020).

Sequences of proteins named here, by UniProt entry; tags and fusion partners are left off.
UniProt P18089, whole entry: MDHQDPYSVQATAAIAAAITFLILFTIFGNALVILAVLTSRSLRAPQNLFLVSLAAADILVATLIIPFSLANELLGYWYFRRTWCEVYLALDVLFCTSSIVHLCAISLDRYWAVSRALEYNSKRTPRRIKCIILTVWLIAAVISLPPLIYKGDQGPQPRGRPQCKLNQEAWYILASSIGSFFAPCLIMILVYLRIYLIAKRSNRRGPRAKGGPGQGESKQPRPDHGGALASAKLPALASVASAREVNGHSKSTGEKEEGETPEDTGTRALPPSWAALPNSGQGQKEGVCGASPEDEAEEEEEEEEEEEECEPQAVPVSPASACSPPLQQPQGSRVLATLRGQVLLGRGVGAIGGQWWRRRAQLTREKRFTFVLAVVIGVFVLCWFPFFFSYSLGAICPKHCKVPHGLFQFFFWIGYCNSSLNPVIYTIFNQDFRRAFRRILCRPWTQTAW

Molecular target: Alpha-2B adrenergic receptor (Homo sapiens, UniProt P18089)

## CCCN[C@H]1CCc2nc(N)sc2C1 [PRAMIPEXOLE]
  Ki: 67.7 nM
